From patent US20230312752A1 (Brown University, priority 2021, published 2023) come the findings set out here.

Each structure is given as a SMILES string.

For this assay, the system named is CHI3L1 phosphorylation.

In the case of `CN1CC[C@H](c2c(O)cc(O)c3c(=O)cc(-c4ccccc4Cl)oc23)[C@H](O)C1` [Flavopiridol], the “degree of phosphorylation changes (comparison of CDK inhibitors)” value was “most prominent changes” and the “serine phosphorylation of CHI3L1” value was “blocked”.
